We go through 1 molecule from ChEMBL document CHEMBL2311524, “Discovery of a potent and selective free fatty acid receptor 1 agonist with low lipophilicity and high oral bioavailability” (J Med Chem, 2013).

Sequences of proteins named here, by UniProt entry; tags and fusion partners are left off.
UniProt O14842, whole entry: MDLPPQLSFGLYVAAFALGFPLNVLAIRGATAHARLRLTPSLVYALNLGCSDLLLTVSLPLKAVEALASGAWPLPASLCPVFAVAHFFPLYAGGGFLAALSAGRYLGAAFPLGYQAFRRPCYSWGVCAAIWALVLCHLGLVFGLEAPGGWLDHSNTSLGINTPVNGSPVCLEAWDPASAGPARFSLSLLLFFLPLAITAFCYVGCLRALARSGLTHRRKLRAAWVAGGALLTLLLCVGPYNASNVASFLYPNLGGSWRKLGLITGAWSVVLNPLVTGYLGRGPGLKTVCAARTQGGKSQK

The test deals with Free fatty acid receptor 1 (Homo sapiens, UniProt O14842). Description: Agonist activity at human FFA1 assessed as calcium mobilization measured for 50 intervals of 0.4 secs by microplate reader analysis relative to TUG-20. The test is classed as functional.

The structures appear in SMILES notation.

Consider `N#CCc1ccccc1C#Cc1ccc(CCC(=O)O)cc1`, for which the Activity amounted to 103%.
